# Antibody variant affinities, Ab-14 heavy chain, assay 1

Source: Engelhart et al. 2022 (doi:10.1038/s41597-022-01779-4), MIT Lincoln Laboratory and A-Alpha Bio; data file from the FLAb repository.

The target is the same throughout: PDVDLGDISGINAS, from the HR2 region of SARS-CoV-2 spike.

Each scFv is VH, a (GGGGS)3 linker, VL, as in the parent Ab-14, and differs from it in the CDRs of the heavy chain only.
VH: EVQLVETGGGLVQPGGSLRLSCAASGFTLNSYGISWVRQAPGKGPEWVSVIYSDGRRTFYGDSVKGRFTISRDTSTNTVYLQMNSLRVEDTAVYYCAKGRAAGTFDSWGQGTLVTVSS
VL: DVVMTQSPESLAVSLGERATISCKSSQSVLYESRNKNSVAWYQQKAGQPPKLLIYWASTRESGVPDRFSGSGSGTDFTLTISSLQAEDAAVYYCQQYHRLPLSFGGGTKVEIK

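The parent was found by panning a naive human phage display library on the peptide. Variants in AAYL49 differ from the parent at up to three CDR positions; double and triple changes were sampled at random. AlphaSeq pools MATa yeast showing the antibodies with MATalpha yeast showing the peptide. Mating (16 h, 30 °C) was followed by selection of diploids and sequencing of their barcodes. Scores were corrected for input abundance and mapped to Kd with protein pairs of known affinity run in the same pool. The assay was run in three technical replicates.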

Each variant is given by its three heavy chain CDRs, as the data file delimits them; those of the parent are GFTLNSYGIS, VIYSDGRRTFYGDSVK, GRAAGTFDS. Every variant below is changed at D54 of the VH (sequential numbering). Kd is apparent (estimated from mating counts) and averaged on the log scale over replicates with a signal. Smaller is tighter. "not detected" marks a missing value. The strain was present, yet no cells mated with the target were sequenced in any replicate, which points to weak or no binding. Order: sorted from the lowest average up, undetected variants last. Background: pairings of library AAYL49 with three empty control strains gave a value in 15% of cases (median 11 µM, 5th percentile 680 nM). Values in that range, when seen in few replicates, are hard to tell from nonspecific mating. Also given: how often the same scFv was detected with the empty control strains.

CDR-H1,CDR-H2,CDR-H3,apparent Kd,replicates with signal,signal with controls
GFTLNSYGIS,VIYSGGRRTFYGDIVK,GRAIGTFDS,1.0 µM,1/3,1/9
GFTLNSYQIS,VIYSWGRRTFFGDSVK,GRAAGTFDS,4.4 µM,1/3,4/9
GFTLNSYGIS,VIYSFGRRTFYIDSVK,GRAAGEFDS,8.0 µM,1/3,1/9
GFTLNSYGIS,VIYSIKRRTFYGDSVK,ARAAGTFDS,12 µM,1/3,2/9
GFTHNSYGIS,VIYSLGRRTFYGDSVK,GRAAGFFDS,13 µM,1/3,0/9
GFTLNSYGIS,VIYSEGRRTFYGDSVK,GQAAGTFDS,17 µM,2/3,0/9
GFTLNSYGIS,VIYSTGRRTFYGDSSK,GRAAGTFDS,24 µM,3/3,3/9
GFTLNSYGIS,VIYSVGRRIPYGDSVK,GRAAGTFDS,53 µM,3/3,5/9
GFTLNSYGIA,VIYSVGRRTFYGDSVK,GRYAGTFDS,55 µM,2/3,4/9
GFTLNSYGIS,TIYSFGRRTFYGDSVK,GRAAGTFES,57 µM,1/3,1/9
GFTLNSYGIS,VIYSHGRRTFYVDSYK,GRAAGTFDS,60 µM,2/3,5/9
GFTLNSSGIS,VIYSNGRRTFYGDSVK,GRAAMTFDS,62 µM,3/3,7/9
GFTLNSYGIS,VIMSCGRRTFYGDSVK,GRAAGTFDS,140 µM,1/3,1/9
GFTLNSYGCR,VIYSAGRRTFYGDSVK,GRAAGTFDS,140 µM,1/3,3/9
GFTLNSYGIS,VIYSIMRRTFYGDSVK,GSAAGTFDS,210 µM,1/3,1/9
GFTLNSYGIS,QIYSHGRRTFYNDSVK,GRAAGTFDS,610 µM,1/3,3/9
GFTLNSYGCE,VIYSIGRRTFYGDSVK,GRAAGTFDS,not detected,0/3,1/9
VFTLNSYGIS,VIMSIGRRTFYGDSVK,GRAAGTFDS,not detected,0/3,0/9
GFTLNSYGIS,VIYSFGRRTFNGDSVK,GRAAGSFDS,not detected,0/3,2/9
GFTLNSYGIS,VIYSQGRRTFYGDSVD,TRAAGTFDS,not detected,0/3,1/9
GFTLNSYGIS,VIYSEGRRTFYGMSVK,GRAAGTFDS,not detected,0/3,0/9
GFTLNSYGIS,VIHSKARRTFYGDSVK,GRAAGTFDS,not detected,0/3,0/9
GFTLNSYGIS,VIGSNGRRTFYGDSVK,GRAAGTFDS,not detected,0/3,0/9
GFTLNSYGIS,VIYSETRRTFYGDSGK,GRAAGTFDS,not detected,0/3,0/9
GFTLNSYGIT,VIYSCGRRTFYGDSVK,GRAAGTDDS,not detected,0/3,0/9
GFTLNSYGIS,VIYSQGRRAFYGDSVK,GYAAGTFDS,not detected,0/3,2/9
GFTLNSFGIA,VIYSEGRRTFYGDSVK,GRAAGTFDS,not detected,0/3,0/9
GFTLNVYGIS,VIYSSGRRTFYGDSVT,GRAAGTFDS,not detected,0/3,4/9
GFTLNSYGIS,VIYSTGRRTKYGDSVK,GRAAGTFMS,not detected,0/3,0/9
GFTLNSYGIS,VIYSYGRRTFYGDSVK,GRAAGTFDS,not detected,0/3,0/9
GFTLNSYGIS,VIYSVGLRTFYGDGVK,GRAAGTFDS,not detected,0/3,0/9
GFTLNSYGIS,VIYHKGRRTFYGDSVK,RRAAGTFDS,not detected,0/3,2/9
GFTLNSYKIS,VIYSGGRRTFYGDSVK,GRAACTFDS,not detected,0/3,0/9
GFTLNSYGIR,VIYSQGRKTFYGDSVK,GRAAGTFDS,not detected,0/3,0/9
GFTQNSYGIS,VIYSMGRRTIYGDSVK,GRAAGTFDS,not detected,0/3,0/9
GFTLNSYGIS,VIYSYGRRTFCGDSVK,GRAAGTFWS,not detected,0/3,0/9
GFTLNSYGIS,VIYSSGRRTKYGDSVK,GRDAGTFDS,not detected,0/3,1/9
GFTLNSYGIS,VIYSQGRRTFYGDSVY,GRAAGTFAS,not detected,0/3,0/9
GFTLNLYGIS,VIYSEGRRTFYGDSVK,GRAAGTFPS,not detected,0/3,2/9
GFTLNSYGIS,VIYSEPRRTFYGDSVK,GRAAGTGDS,not detected,0/3,0/9
GFTLNSYGIS,VIYWWGRRTFYGDSVK,GRAAGKFDS,not detected,0/3,1/9
GFTLNSYGIS,VIYSIGRRTFYGDSVK,GQAAGTFDS,not detected,0/3,1/9
GFTLNSYGSS,VIYSGGRRTFYGDSVK,GRIAGTFDS,not detected,0/3,0/9
GFTLNSYGIS,VIYKLGRRTFYGDSVK,GAAAGTFDS,not detected,0/3,0/9
GFTDNSYGIS,VIYSEGRRTFYGDSHK,GRAAGTFDS,not detected,0/3,0/9
GFTLNLYGIS,VIYSSGRRRFYGDSVK,GRAAGTFDS,not detected,0/3,1/9
GFTLNSQGIS,VIYSLGRRTFYGDSVK,GRAAGTFWS,not detected,0/3,6/9

Extract of 5 entries:

CDR-H1,CDR-H2,CDR-H3,apparent Kd,replicates with signal,signal with controls
GFTLNSYGIS,VIYSEGRRTFYGDSVK,GQAAGTFDS,17 µM,2/3,0/9
GFTLNSYGIS,VIYSGGRRTFYGDIVK,GRAIGTFDS,1.0 µM,1/3,1/9
GFTLNSYGIS,VIYHKGRRTFYGDSVK,RRAAGTFDS,not detected,0/3,2/9
GFTLNSYGSS,VIYSGGRRTFYGDSVK,GRIAGTFDS,not detected,0/3,0/9
GFTLNSQGIS,VIYSLGRRTFYGDSVK,GRAAGTFWS,not detected,0/3,6/9